Literature values in US8555875B2, “Inhalation devices and related methods for administration of sedative hypnotic compounds” (Map Pharmaceuticals, Inc., priority 2008, dated 2013).

Conditions: in vivo

Cc1ccc(-c2nc3ccc(C)cn3c2CC(=O)N(C)C)cc1 [Zolpidem]
Half Life: 2 h
